Inhibition data for one compound are collected here from PubChem BioAssay AID2521 (Sanford-Burnham Center for Chemical Genomics, 2010).

Protein sequences, listed by entry. Tags and fused reporters are not part of them. Lines headed by an entry give the natural chain unless they say otherwise; changes in a name come on top.
UniProt P35414: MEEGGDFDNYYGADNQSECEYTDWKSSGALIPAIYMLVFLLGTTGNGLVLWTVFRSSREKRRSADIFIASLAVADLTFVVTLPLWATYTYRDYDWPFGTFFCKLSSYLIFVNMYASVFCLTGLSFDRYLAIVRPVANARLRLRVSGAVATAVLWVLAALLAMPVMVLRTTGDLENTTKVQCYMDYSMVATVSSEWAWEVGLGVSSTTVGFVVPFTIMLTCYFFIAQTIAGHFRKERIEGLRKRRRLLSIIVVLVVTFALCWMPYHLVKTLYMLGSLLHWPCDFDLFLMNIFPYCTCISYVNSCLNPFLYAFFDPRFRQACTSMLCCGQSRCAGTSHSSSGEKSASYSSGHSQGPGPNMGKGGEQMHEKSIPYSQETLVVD

This is a selection; strong and weak results do not stand in their true shares. Activity calls are given as the source filed them.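 How the source made its calls: active means inhibition above about 40% at 20 µM (limit read from the data); inactive means the rest.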

For this test, the target named is Apelin receptor (Homo sapiens) (UniProt P35414). Description: blockade of apelin-induced APJ beta-arrestin recruitment – CHO-K1 cells, beta-arrestin complementation, luminescence, primary screen (AID 2521).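 Further: cells challenged with 10 nM apelin-13 agonist together with compound; plate controls were apelin-13 plus DMSO wells for no effect and DMSO wells lacking apelin-13 for full effect.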 As to conditions: at 20 µM, hits give high values. For orientation: Activated receptors often draw arrestin, which recruitment assays turn into a signal.
With `Cc1ccnc(SCc2cc(=O)c(OC(=O)c3ccc(Cl)c([N+](=O)[O-])c3)co2)n1`, the inhibition (usually the change of the read-out against control, counted positive when it falls) was active: 58.4%.
